In patent US20130123201A1, “MODULATION OF CYTOKINE-INDUCED CHRONIC INFLAMMATORY RESPONSES” (UNIVERSITY OF MANITOBA, priority 2010, published 2013):

Tests used:
Type in all cases: cell-based
[1] = system: AHA-labeled human monocytic THP-1 cells; assay: ELISA of IL-8 production by AHA-labeled THP-1 cells; settings: 10 ng/ml, 4 hr, p<0.001
Experimental: ELISA immunoassay: Tissue culture (TC) supernatants were centrifuged at 1500× g for 7 mM to obtain cell-free samples, aliquoted and stored at −20° C. until further use. Production of IL-8 was monitored using specific antibody pairs for ELISA (R&D Systems, Inc. Minneapolis, Minn., USA), as per the manufacturer's instructions. The concentration of IL-8 in the TC supernatants was evaluated by establishing a standard curve with serial dilutions of the recombinant human IL-8 as required.
AHA labeling, biotin tagging of nascent proteins, and affinity purification: Cells were washed with warm D-PBS, and cultured in methionine-free, serum-free RPMI media at 37° C. 5% CO2 for 60 min. The cells were then incubated in 100 μM Click-iT® AHA (Invitrogen Canada Inc.) (CLICK-iT is a registered trademark of Molecular Probes Inc., Eugene, Oreg., USA) in methionine-free and serum-free RPMI media in the presence and absence of either TNF-α (10 ng/ml) or IL-1β (10 ng/ml) for 4 hr. TC supernatants were monitored for the production of IL-8 by ELISA. […]
AHA-labeled human monocytic THP-1 cells were stimulated with either IL-1β (10 ng/ml) or TNF-α (10 ng/ml) for 4 hr. Cytokine treatment of AHA-labeled THP-1 cells was not cytotoxic as evaluated by monitoring LDH release in the tissue culture (TC) supernatant (data not shown). TC supernatants were also monitored for IL-8 production by ELISA. […]

[2] = system: Human THP-1 monocytic cells; assay: qRT-PCR kinetics of cytokine-induced gene expression of identified candidates
Description: Quantitative real-time PCR (qRT-PCR): RNA was isolated using the Qiagen RNeasy® kit as per the manufacturer's instructions (Rneasy is a registered trademark of Qiagen GmbH, Hilden, Fed. Rep. Germany). Gene expression was subsequently analyzed by qRT-PCR using SuperScript® III Platinum Two-Step qRT-PCR Kit with SYBR Green (SuperScript is a registered trademark of Invitrogen Corp., Carlsbad, Calif., USA), according to the manufacturer's instructions, in the ABI PRISM® 7300 sequence detection system (BI PRISM is a registered trademark of Applera Corp., Foster City, Calif., USA). Fold changes were calculated by the comparative Ct method as taught by Pfaffl (2001) after normalization with 18sRNA.

[3] = system: human monocytic THP-1 cells; assay: Cellular cytotoxicity by LDH release; settings: AHA-labeled THP-1 cells, cytokine 10 ng/ml, 4 hr, data not shown

## TNF-α: Recombinant human cytokine TNF-α from eBioscience, used as stimulant
[1]
  Production of IL-8: significant
[2]
  Up-regulation of gene expression of PYGL: 1.5 fold
[2]; p≦0.01
  Up-regulation of gene expression of RAB14 and Eifa3: but not
[3]
  Cytotoxicity of cytokine treatment (LDH release): not cytotoxic
